In patent US20080318246:

System: P2, Ac-GRTGRRDap(Pyr)SYP-amide (unphosphorylated PKA substrate)

“cAMP-dependent protein kinase (PKA), murine catalytic subunit” was tested, and the Km was “Km=7.1±1.9 µM” and the Vmax was “Vmax=8.4±1.2 µmol/min-mg”.
